## Yeast mating assay B: variants of the scFv Ab-14

The target is the same throughout: PDVDLGDISGINAS, from the HR2 region of SARS-CoV-2 spike.

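Phage display of a naive human antibody library on the peptide gave the parent. These sequences belong to a second round, designed from the earlier measurements on random variants of the parent. Several design methods are mixed in this list. In AlphaSeq, yeast of one mating type display the scFv and yeast of the other type display the target. Mating (16 h, 30 °C) was followed by selection of diploids and sequencing of their barcodes. Read counts were normalised to the haploid input and turned into Kd by a linear fit to BCL2-family pairs of known affinity, for each replicate. There are six technical replicates.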

Parent: Ab-14, a human scFv built as VH, the linker GGGGSGGGGSGGGGS, VL. Only the CDRs of the heavy chain vary.
VH: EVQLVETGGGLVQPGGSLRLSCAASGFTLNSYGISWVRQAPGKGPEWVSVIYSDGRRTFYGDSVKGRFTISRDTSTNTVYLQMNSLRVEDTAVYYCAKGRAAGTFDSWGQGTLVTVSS
VL: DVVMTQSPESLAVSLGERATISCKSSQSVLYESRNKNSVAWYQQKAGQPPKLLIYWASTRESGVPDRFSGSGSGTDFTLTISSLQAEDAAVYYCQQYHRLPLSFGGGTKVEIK

Each variant is given by its three heavy chain CDRs, as the data file delimits them; those of the parent are GFTLNSYGIS, VIYSDGRRTFYGDSVK, GRAAGTFDS. The read-out is the apparent dissociation constant on a log10 scale (nM): the lower, the stronger. Replicates are averaged; those with no signal do not enter the mean. An entry "no signal" has no value in the source: the pair was not observed among the diploids in any replicate. This suggests poor binding but is not conclusive. Three control strains display no target. For all heavy chain designs, 1% of the pairings with them gave a signal, with a median of 2.08 and one signal in twenty below 0.84, so weak values seen in few replicates may be background. The authors averaged sequences with at least three values out of six and counted those with two or fewer as poor binders. The range of this assay differs from that of the first round, and the authors advise against merging the two. Of ten entries with the parent sequence, four were seen in most replicates (averages 0.34 to 2.37), three in one and three in none, so single entries are noisy.

CDR-H1 | CDR-H2 | CDR-H3 | log10 Kd (nM), mean | replicates with signal
GYDIQDYGIS | VIYADGVRVAYHDSVK | GQMAGFFIL | no signal | 0/6
GDSLNEYGIS | VIYADGVRARYADPVK | GENDGLFDQ | 2.02 | 2/6
GFSINQYGIS | VIYSDGRRTFYGDSVK | GRAAGTFDV | 0.08 | 6/6
GFDLNEYGIS | VIYADGIRTAYSKKVK | GMDGIVILF | no signal | 0/6
GFNLNSYGIS | VIYSDGRRTFYHDVVK | GRAAWTFDS | no signal | 0/6
GFDLNSYGIS | VIYSDGRRTFYQDSVK | GRQAGTFDS | 0.04 | 6/6
GFDLNEYGIS | VIYADGRRTQYIDSVK | GEAAGTFDM | 0.09 | 6/6
GFDLDEYGIS | VIYADGMRTAYSDKVK | GENAGTFDL | 0.09 | 6/6
GFTLNSYGIS | VIYSDGRRTFYGDSVK | GEAAGTFDS | 1.60 | 5/6
GFDLNEYGIS | VIYADGVRTQYIDSVK | GETAGTFDV | 0.05 | 6/6
GFDLDEYGIS | VIYADGMRTAYSDSVK | GNTAGTFDL | -0.37 | 6/6
GFDLESYGIS | VIYADGRRTAYADKVK | GVNAGTFDI | 0.23 | 6/6
GFTLNSYGIS | VIYSDGRRTFYADPVK | GRTAGTFDS | 1.80 | 4/6
GFDLDEYGIS | VIYADGMRTAYSDSVK | GTNAGTFDL | -0.41 | 6/6
GFTLNSYGIS | VIYSDGRRTFYGDSVK | GRFAGLFDL | no signal | 0/6
GFTLNMYGIS | VIYSDGRRTFYGDSVK | GRNAGTADS | no signal | 0/6
GFDLNEYGIS | VIYADGMRTFYSDSVK | GTVAGTFDS | -0.66 | 6/6
GFDLNEYGIS | VIYADGRRTAYADSVK | GEVAGTFVQ | 0.09 | 6/6
GDSLNEYGIS | VIYADGVRARYADDVK | GENDGLFDM | no signal | 0/6
WFTLNEYGIS | VIYSDGRRTFYGDSVK | GRTAGTFDS | 1.14 | 1/6
GFHLESYGIS | VIYSDGRRTFYLDSVR | GHAAGTFDS | no signal | 0/6
GFTLNDYGIS | VIYSDGRRTFYGDSVK | GKAAGTFDT | 0.21 | 6/6
GFTLNDYGIS | VIYSDGRRTFYIDSVK | GRAAGTFVS | 3.46 | 1/6
GFWLNMYGIS | VIYSDGRRTFYADSVK | GRTAGTFDS | no signal | 0/6
GFTLMSYGIS | VIYSDGRNTFVDDSVK | GQLAGTFDS | no signal | 0/6
GFDLNEYGIS | VIYADGMRTAYADNVK | GQVAGTFDQ | -0.17 | 6/6
KFTLNSYGIS | VIYSDGRRTFYDDSVK | GKTAGTFDS | 1.52 | 5/6
GFTLESYGIS | VIYADGRRTFYGDSVK | GKAAGTFDC | no signal | 0/6
GFTLNSYGIS | VIYSDGRRTAYGDSVA | GRAAGTFDS | 0.80 | 6/6
GFTLNSYGIS | VIYSDGRRTFYADSVK | GKEAGTFDS | -0.13 | 6/6
GDVLDEYGIS | VIYADGRRTFYVQDVK | GGKAGSLSV | no signal | 0/6
GFTLNSYGIS | VIYSDGRRTFYGDSVK | GRAAGTFDK | no signal | 0/6
GFVLNSYGIS | VIYSDGRRTFYIDSVK | GKAAGTFDS | no signal | 0/6
GFTLESYGIS | VIYSDGRRTFYGDSVK | GIGAGTFDS | 1.59 | 1/6
GYTLNEYGIS | VIYSDGRRTQYSDSVK | GRAAGTFDS | 0.76 | 1/6
GFDLDEYGIS | VIYADGMRTYYADSVK | GNTAGTFDV | 0.97 | 6/6
GFTLMSYGIS | VIYSDGRRTFYMDSVK | GQLAGTFDS | 1.99 | 2/6
GFDLNEYGIS | VIYADGKRTAYSDSVK | GNQAGTFDM | -0.16 | 6/6
GMDLGEYGIS | VIYADGERASYTNNFK | GVSAGFLTV | 2.99 | 1/6
GFELNSYGIS | VIYSDGRRTFYTDDVK | GRTAGTFDS | -0.25 | 6/6
GFDLNEYGIS | VIYADGKRTQYIDSVK | GNQAGTFDS | 0.29 | 6/6
GFMLNSYPIS | VIYSKGRRTFYDDSVK | GQLAGTFDS | no signal | 0/6
GFTLNSYGIS | VIYSDGRRTFYGDNVK | GQAAGTFDT | 1.23 | 2/6
GFTLNSYGIS | VIYSDGRRTFYDDSVK | GWLAGTFDS | no signal | 0/6
GFSLNSYGIS | VIYSDGRRTAYGDDVK | GRTAGTFDS | -0.05 | 6/6
GFDLDEYGIS | VIYADGMRTYYADSVK | GNVAGTFDL | 0.83 | 4/6
GFDLNEYGIS | VIYADGRRTSYADSVK | GEQAGTFDV | -0.34 | 6/6
GFDLNEYGIS | VIYADGRRTAYLDSVK | GEAAGTFDT | -0.35 | 6/6
GFTLNSYGIS | VIYSDGRRTFYGDSVK | GKEAGTFDA | -0.19 | 6/6
GFSLNSYGIS | VIYSDGRRTFYADSVK | GRTAGTFDG | 0.21 | 6/6
GFTLNEYGIS | VIYSDGRRTQYIDSVK | GRAAGTFWS | no signal | 0/6
GKSLDEYGIS | VIYADGTRAFYANSVK | GLISMVFGK | no signal | 0/6
GFDLNEYGIS | VIYADGSRTAYSDSVK | GQNAGTFDV | 0.49 | 6/6
GFDINEYGIS | VIYADGVRTFYADSVK | GNQGGTFDL | 0.75 | 6/6
GFTLNSYGIS | VIYSDGRRTFYKDNVS | GRAAGGNDS | no signal | 0/6
GFTLESYGIS | VIYADGRRTFYGDSVK | GRAAGTFDI | 0.56 | 6/6
GFEIEEYGIS | VIYADGVRTMYTDNVK | GDILGLALT | 1.90 | 2/6
GFNLDEYGIS | VIYADGRRTFYADSVK | GEAAGTFDS | -0.04 | 6/6
GFTLNEYGIS | VIYSAGRRFFYGDSVK | GRAAVTFDQ | no signal | 0/6
GFDLNEYGIS | VIYADGRRTAYVQSVK | GKNNMVDSV | no signal | 0/6
GFTLNSYGIS | VIYSDGRRTFYGDSVK | GRQAGQFDS | 0.44 | 1/6
GFQLNSYGIS | VIYSDGRRTFYIDSVK | GWAAGTFDS | 1.67 | 4/6
GFTLNEYGIS | VIYSDGRRTFYGDAVK | GRAAGTFDI | 0.94 | 6/6
KFTLNSYGIS | VIYSDGRRTFYGDSVK | GRAHGQFES | no signal | 0/6
GFDLNEYGIS | VIYADGLRTFYADSVK | GQNAGTFDQ | -0.40 | 6/6
GFDLDEYGIS | VIYADGSRKAYADSVK | GNVAGTFDV | -0.05 | 4/6
GFSLNSYGIS | VIYSDGRRTFYADDVK | GRAAGTFDS | 0.59 | 6/6
GFSLNSYGIS | VIYSDGRRTFYHDSVK | GRQAGTFDS | 0.24 | 3/6
GFTLNSYSSS | VIYSDGRRTFYGDSVV | GGAAGTFDS | no signal | 0/6
GFELNEYGIS | VIYSDGRRTFYGDSVK | GRWAGTFDS | 0.69 | 1/6
GFTLNEYGIS | VIYSDGRRTWYSDSVK | GRAAGTFDS | 0.31 | 6/6
GFDLNSYGIS | VIYSDGRRTFYQDSVK | GKEAGTFDS | -0.36 | 6/6
GFTLNSYGIS | VISSDGRRTFYDDSVK | GQLAGTFDS | 2.83 | 1/6
EADLNSYGIS | VIYSDGRRTFYGDSVK | GRAAGTFDI | no signal | 0/6
GFGLGEYGIS | VIYADGHRTAYSTSVK | GTIGGTFFN | 1.04 | 6/6
LQTLNSPGIS | VIYSDGRRTFLADSVK | GQLAGTFDS | no signal | 0/6

The first 11 variants above that were never detected:

CDR-H1 | CDR-H2 | CDR-H3 | log10 Kd (nM), mean | replicates with signal
GYDIQDYGIS | VIYADGVRVAYHDSVK | GQMAGFFIL | no signal | 0/6
GFDLNEYGIS | VIYADGIRTAYSKKVK | GMDGIVILF | no signal | 0/6
GFNLNSYGIS | VIYSDGRRTFYHDVVK | GRAAWTFDS | no signal | 0/6
GFTLNSYGIS | VIYSDGRRTFYGDSVK | GRFAGLFDL | no signal | 0/6
GFTLNMYGIS | VIYSDGRRTFYGDSVK | GRNAGTADS | no signal | 0/6
GDSLNEYGIS | VIYADGVRARYADDVK | GENDGLFDM | no signal | 0/6
GFHLESYGIS | VIYSDGRRTFYLDSVR | GHAAGTFDS | no signal | 0/6
GFWLNMYGIS | VIYSDGRRTFYADSVK | GRTAGTFDS | no signal | 0/6
GFTLMSYGIS | VIYSDGRNTFVDDSVK | GQLAGTFDS | no signal | 0/6
GFTLESYGIS | VIYADGRRTFYGDSVK | GKAAGTFDC | no signal | 0/6
GDVLDEYGIS | VIYADGRRTFYVQDVK | GGKAGSLSV | no signal | 0/6

From the AlphaSeq antibody data of Li et al. 2023 (doi:10.1038/s41467-023-39022-2), copy in the FLAb collection.